Assay results from US20240415819A1, “MACROCYCLIC COMPOUNDS AS PROTEASOME SUBUNIT BETA TYPE-5 INHIBITORS” (Lead Discovery Center GmbH, priority 2021, published 2024).
pIC50: −log10 of the molar value.

Tests used:
[1] = target: β5 subunit of the human immunoproteasome (IPS) (Homo sapiens, UniProt P28062); assay: β5 inhibition assay, human immunoproteasome (Suc-LLVY-AMC); format: biochemical; details: read-out: IPS, IC50 class, Suc-LLVY-AMC substrate
Protocol: The enzymatic activity of the β5 subunit of the human constitutive proteasome (CPS) is analyzed. In another assay, which differs from the assay of the human constitutive proteasome only in using the human immunoproteasome (IPS) the enzymatic activity of the β5 subunit of the human immunoproteasome (IPS) is analyzed. Incubation of the enzyme with its fluorogenic substrate Suc-LLVY-AMC leads to liberation of the fluorescent dye AMC which can be measured with a suitable plate reader. • 100 mM HEPES pH7.5 • 50 mM NaCl • 0.02% SDS • 1 mM DTT (add fresh) • Victor X5 (Perkin Elmer) • Label: Umbeliferone (0.1s) • Excitation wavelength: 355 nm • Emission wavelength: 460 nm • 4 μl human cPS or IPS enzyme in assay buffer (final assay concentration 1 nM) or 4 μl assay buffer for negative controls • Compound addition via acoustic dispenser (Echo 520, Labcyte) • Mix and incubate @ RT for 10 min • 4 μl Suc-LLVY-AMC substrate (final assay concentration 22.6 μM) • Mix and incubate @ RT for 4 h (dark) • Stop reaction with 4 μl Bortezomib (final assay concentration 1 μM) • 15 min @ RT • Measure (Excitation 355 nm; Emission 460 nm)

[2] = system: A549 (human lung carcinoma cell line); assay: Glo assay of A549 cells (Table 3; ProteasomeGlo plating scheme); format: cell-based; details: read-out: PGLo A549
From the text: Inhibition is indicated as IC50 [nM] (“-”=not measured). […] • Chymotrypsin-Like Cell-Based Proteasome-GloTM Assay (Promega; […]) • Cell culture 384-well plates (Greiner BioOne; 781080) • Dispensing cassette, MultiDrop Standard tube dispensing cassette (Thermo Scientific; 24072670) • DPBS (Pan BioTech; P04-36500) • Cell culture 384-well plates (Greiner BioOne; 781080) • CPD source plate: diamond-shape plate (Labcyte; LP-0200) • Intermediate plate (Labcyte; P-05525) [table] • a. Remove the plates with cells from the incubator. • b. Take all the plates including the compound plate, intermediate plate and Staurosporine plate to the ECHO. • c. Click on “Open” in the ECHO software and select the protocol “QLI5_25ul_30 uM-Grenier”. • d. Follow the on-screen prompts and instructions once you click “Start” to insert the compound plate, intermediate plate and destination plates. • e. Change the final number of destination plates on the program. • f. Follow the on-screen prompts and instructions once you click “Start” to load the Staurosporine and destination plates. • g. Once all the compounds, DMSO and Staurosporine have been transferred, place the destination plates in a wet tissue box. • h. Place the destination plates back into the incubator and incubate at 37° C., 5% CO2 for 105 minutes. • i. […] Measure the luminescence read-out using the Viktor and the protocol “Luminescence_384Well_0.2 sec”. […]

[3] = target: β5 subunit of the human constitutive proteasome (CPS) (Homo sapiens, UniProt P28074); assay: β5 inhibition assay, human constitutive proteasome (Suc-LLVY-AMC); format: biochemical; details: read-out: CPS, IC50 class, Suc-LLVY-AMC substrate
Protocol: The enzymatic activity of the β5 subunit of the human constitutive proteasome (CPS) is analyzed. In another assay, which differs from the assay of the human constitutive proteasome only in using the human immunoproteasome (IPS) the enzymatic activity of the β5 subunit of the human immunoproteasome (IPS) is analyzed. […] Inhibition is indicated as IC50 [nM] (“-”=not measured).

HT-29 cells = assay: CellTiter-Glo luminescent cell viability assay with HT-29 cells (72h incubation); format: cell-based, human; details: read-out: CTG HT29
Protocol: Cell Titer Glo Viability Assay with HT-29 Cells (72h Incubation) The CellTiter-Glo Luminescent Cell Viability Assay (Promega) is a homogeneous method of determining the number of viable cells in culture. It is based on quantification of ATP, indicating the presence of metabolically active cells. On day 1 400 HT-29 cells per well are seeded in white 384well plates (Greiner, #781080) in 25 μl cell culture medium (DMEM (PAN-Biotech #P04-03590)+10% FCS+glutamine). After incubation for 24 h at 37° C./5% CO2 compounds or DMSO are added at different concentrations by Echo Liquid Handling Technology. Cells are further incubated in humidified chambers for 72 h at 37° C. and 5% CO2. Cells treated with the compound vehicle DMSO are used as positive controls and cells treated with 10 μM Staurosporine serve as negative controls. At day 5-72h after compound addition—the CellTiter Glo Reagent is prepared according to the instructions of the kit (Promega Inc.): Reagent is mixed 1:1 with cell culture medium. […] Following incubation the luminescence is recorded on a Victor microplate reader (Perkin Elmer) using a 200 ms integration time. The data is then analyzed with Excel using the XLFIT Plugin (dose response Fit 205) for IC50-determination. As quality control the Z′-factor is calculated from 16 positive and negative control values. […] (“-”=not measured).

In the case of `Cc1ccc2cc1CNC(=O)[C@H](CCc1ccccc1)NC(=O)[C@@H](NC(=O)Cc1nc(-c3cccnc3)n[nH]1)CC(=O)N1CCCC(CCO2)C1` (stereo partly shown), the pIC50 [1] was over 7.00, the pIC50 [2] was 6.30 to 7.00 and the pIC50 [3] was over 7.00. The pIC50 (HT-29 cells) was over 7.00.
